Measured values: PubChem BioAssay AID720511 (Broad Institute, 2013)
The entries are a selection whose mix differs from that of the whole data set. Some tests of the compounds listed are not included; inactive here does not mean inactive elsewhere. Activity calls are given as the source filed them.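 Rule for the calls: active = mean added fluorescence quench of at least 8% versus neutral control, with both replicates also reaching 8%; inconclusive = only one of the mean or replicate conditions met; inactive = mean below 8% and not both replicates reaching 8%.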

Assay: F508del CFTR correction, initial screen, CFBE line, single point (AID 720511);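 note: corrector assay measuring rescue of mutant channel to the surface after 24 h compound exposure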
Details: CFBE cells, YFP halide quenching, at 7.58 µM, active compounds read high, % fluorescence drop versus neutral controls, stimulated with forskolin plus potentiator P3

| SMILES | activity (quench increase) |
| --- | --- |
| COc1cc(SC)ccc1C(=O)NCC1(N(C)C)CCCCC1 | inactive: -1.32% |
| CCN(CC)CC(C)C(C)OC(=O)C(O)(c1ccccc1)c1ccccc1 (stereo unspecified) | inactive: 1.57% |
| Cc1ccc(C(=O)NCC2(N3CCCCC3)CCCCC2)cc1 | inactive: 0.412% |
| O=C(NCC1(N2CCCCC2)CCCCC1)c1cc([N+](=O)[O-])ccc1Cl | inactive: -0.98% |
| CN1[C@@H]2CC[C@H]1CC(OC(=O)C(O)(c1ccccc1)c1ccccc1)C2 (stereo partly specified) | inactive: -0.74% |
| O=C(NCC1(N2CCCCC2)CCCCC1)c1cc(F)c(F)cc1Cl | inactive: 2.12% |
| C=CCN1CCN(CCOC(=O)C(O)(c2ccccc2)c2ccccc2)CC1 | inactive: -2.65% |
| O=C(NCC1(N2CCCCC2)CCCCC1)c1cccc(Br)c1 | inactive: -0.786% |
| Cc1cc(C(=O)NCC2(N3CCCCC3)CCCCC2)ccc1[N+](=O)[O-] | inactive: -1.83% |
| COc1ccc(C(=O)NCC2(N(C)C)CCCCC2)cc1 | inactive: -4.12% |
| CN(C)c1ccc(C(=O)NCC2(N(C)C)CCCCC2)cc1 | inactive: 1.1% |
| Cc1ccccc1C(=O)NCC1(N2CCCCC2)CCCCC1 | inactive: -0.36% |
| COc1ccc(Cl)cc1C(=O)NCC1(N(C)C)CCCCC1 | inactive: 1.37% |
| COc1cccc(C(=O)NCC2(N3CCCCC3)CCCCC2)c1 | inactive: 1.2% |
| O=C(NCC1(N2CCCCC2)CCCCC1)c1cccc(Cl)c1 | inactive: -0.073% |
| CN(C)C1(CNC(=O)c2ccc(Br)cc2)CCCCC1 | inactive: -0.292% |
| COc1cc(C(=O)NCC2(N(C)C)CCCCC2)c([N+](=O)[O-])cc1OC | inactive: 1.43% |
| COc1ccc(Br)c(C(=O)NCC2(N3CCCCC3)CCCCC2)c1 | inactive: -1.77% |
| C=C(C)C#CC(O)(C(=O)OC1CCN(C)CC1)c1ccccc1 (stereo unspecified) | inactive: -3.51% |
| O=C(OCCN1CCCC1)C(O)(c1ccccc1)c1ccccc1 | inactive: -1.23% |
| CC(C)Oc1ccc(C(=O)NCC2(N(C)C)CCCCC2)cc1 | inactive: 4.68% |
